Test: Critical micelle formation concentration (CMC) by PNA incorporation
Format: physicochemical
Settings: isotonic phosphate buffer pH 7.4, PNA incorporation
Protocol: With regard to the PEG-grafted gelatin prepared, the critical micelle formation concentration (CMC) was measured. The CMC was measured by incorporating N-phenyl-1-naphtylamine (PNA) into the micelle. Using an isotonic phosphate buffer with a pH of 7.4, various concentrations—having PEG-grafted gelatin aqueous solutions were prepared. 0.1 ml of the PNA solution dissolved in methanol having a concentration of 5.0×10^−3M was added to 2 ml of the PEG-grafted gelatin solution and stirred for 2 minutes. Thereafter, the absorbance at a wavelength of 500 nm was measured using a spectrophotometer.
With regard to the PEG-grafted succinated gelatin prepared, the critical micelle forming concentration (CMC) was measured. The CMC was measured by incorporating N-phenyl-1-naphtyl amine (PNA) into the micelle. Using an isotonic phosphate buffer with a pH of 7.4, PEG-grafted succinated gelatin aqueous solutions with various concentrations were prepared. […] Thereafter, the absorbance at a wavelength of 500 nm was measured using a spectrophotometer.
Micelle solutions were prepared in accordance with the method of Example 3 from the PEG-grafted gelatin derivatives prepared in Example 22 and the CMC of each derivative was measured in accordance with Example 5.

CMC (whether admitted): CMC was not admitted
Substance: methoxy polyethylene glycol succinimidyl succinate [SUNBRIGHT MEC-50HS]
